The values below are quoted from earlier work in US20110195912A1, “Oligomer-Protease Inhibitor Conjugates” (Nektar Therapeutics, priority 2008, published 2011).

The data set concerns HCV genotype 1. Conditions: in combination with ribavirin; patients with HCV genotype 1 infection.

Regarding “pegIFN: PEGylated interferon-α2, current standard of treatment alone or in combination with ribavirin”, the “patients in whom combination treatment is effective” value is reported as 50%.
